{
  "source": "the supplement of paper PMC12532568",
  "note": "Counter-ions that a name gives are not always drawn. The list shows a part of the results, in another mix than the full data.",
  "data": [
    {"test_system": "Danio rerio larvae Tg(actc1b:ZsGreen-LC3), 3 dpf", "experiment": "LC3 puncta relative area vs vehicle, with NH4Cl (autophagic flux) (log2 fold change); higher = more autophagy", "conditions": "10 µM; treatment time 16 h; NH4Cl: + 100 mM, 4 h", "method": "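Transgenic Tg(actc1b:ZsGreen-map1lc3) zebrafish larvae (2 dpf) were treated for 16 h with Tocris library compounds at 10 µM (n = 12 larvae per compound). Skeletal-muscle LC3 puncta area relative to body area was measured by high-content confocal imaging before and after 4 h of 100 mM NH4Cl (autophagic flux), normalised to vehicle (DMSO), and reported as log2 fold change.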", "values": [
      {"smiles": "N/C(=N/CCc1ccc(I)cc1)SCCCc1cnc[nH]1", "note": "[Iodophenpropit dihydrobromide]", "LC3 puncta (log2)": 0.934}
    ]}
  ]
}
